Results: patent US20080221060A1, “Therapeutic Compounds” (priority 2004, published 2008)
Read-outs that look alike come from different tables or passages of the source.

Amino acid sequences for entries named in this document (tags omitted).
UniProt P30543, whole entry: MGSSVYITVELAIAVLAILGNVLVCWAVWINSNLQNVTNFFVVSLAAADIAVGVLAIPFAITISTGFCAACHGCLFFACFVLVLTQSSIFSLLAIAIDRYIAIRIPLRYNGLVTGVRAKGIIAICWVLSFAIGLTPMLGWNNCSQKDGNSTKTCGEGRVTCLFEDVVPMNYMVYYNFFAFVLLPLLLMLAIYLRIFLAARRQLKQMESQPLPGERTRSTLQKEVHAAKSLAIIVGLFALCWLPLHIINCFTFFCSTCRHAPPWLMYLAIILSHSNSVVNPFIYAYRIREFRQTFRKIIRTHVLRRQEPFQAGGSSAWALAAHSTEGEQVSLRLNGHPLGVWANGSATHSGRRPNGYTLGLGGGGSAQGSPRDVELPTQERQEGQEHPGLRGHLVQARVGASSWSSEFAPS

Target: adenosine receptors (rat striatal membranes, [3H]-CGS21680) (Rattus norvegicus, UniProt P30543)
Test: Ki from displacement of [3H]-CGS21680 in rat striatal membranes at pH 5.5 and pH 7.4
Type: binding
Settings: 2 nM [3H]-CGS21680, 90 minutes at 22° C.
[1] = read-out: (Ki) nM (pH 5.5), pH 5.5
[2] = read-out: (Ki) nM (pH 7.4), pH 7.4

Structure (SMILES)	Ki [1]	Ki [2]
CCCCCCCc1nc(N)c2ncn([C@@H]3O[C@H](CO)[C@@H](O)[C@H]3O)c2n1	15 nM	800 nM
CCCCCCOc1nc(N)c2ncn([C@@H]3O[C@H](CO)C[C@H]3O)c2n1	13 nM	2990 nM
